Data reported in PubChem BioAssay AID540263 (National Center for Advancing Translational Sciences (NCATS), 2011).
The campaign covered roughly 340,000 compounds. About 100 (0.029%) were called active. Where a call stands in place of a potency, no number is given. About 8% were inconclusive and are not listed. Calls come from the whole dose curve. This excerpt belongs to a sample that is enriched for actives. Where a SMILES comes first, the peptide text is derived from it. [ ]: non-standard residue; d: D form. ξ: configuration not given here. Ac5c = NC1(C(=O)O)CCCC1; ξS = NC(CO)C(=O)O

Sequences of proteins named here, by UniProt entry; tags and fusion partners are left off.
UniProt Q14974, whole entry, looked up: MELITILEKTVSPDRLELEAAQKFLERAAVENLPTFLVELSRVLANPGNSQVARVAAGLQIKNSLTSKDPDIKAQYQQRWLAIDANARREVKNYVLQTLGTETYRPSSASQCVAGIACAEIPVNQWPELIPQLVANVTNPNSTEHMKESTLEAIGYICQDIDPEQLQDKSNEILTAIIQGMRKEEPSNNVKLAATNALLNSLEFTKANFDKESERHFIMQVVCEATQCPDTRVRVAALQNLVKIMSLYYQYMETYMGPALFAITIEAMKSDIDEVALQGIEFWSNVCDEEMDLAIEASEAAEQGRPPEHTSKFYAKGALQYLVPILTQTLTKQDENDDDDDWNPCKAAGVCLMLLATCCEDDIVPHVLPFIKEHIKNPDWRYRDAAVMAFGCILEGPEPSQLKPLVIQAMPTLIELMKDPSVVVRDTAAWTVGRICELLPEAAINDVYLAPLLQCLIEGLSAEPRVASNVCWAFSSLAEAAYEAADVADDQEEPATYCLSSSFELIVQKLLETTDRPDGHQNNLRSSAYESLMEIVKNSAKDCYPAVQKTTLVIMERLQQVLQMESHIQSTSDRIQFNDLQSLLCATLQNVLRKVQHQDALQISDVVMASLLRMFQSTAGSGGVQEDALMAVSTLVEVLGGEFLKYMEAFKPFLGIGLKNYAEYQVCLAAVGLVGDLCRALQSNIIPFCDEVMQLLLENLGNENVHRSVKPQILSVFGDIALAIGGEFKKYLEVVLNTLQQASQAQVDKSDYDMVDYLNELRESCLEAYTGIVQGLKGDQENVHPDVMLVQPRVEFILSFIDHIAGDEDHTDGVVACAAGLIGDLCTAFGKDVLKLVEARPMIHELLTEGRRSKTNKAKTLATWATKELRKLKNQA

Target: Importin subunit beta-1 (Homo sapiens) (UniProt Q14974)
Assay: qHTS Assay for Inhibitors of Rango (Ran-regulated importin-beta cargo) - Importin beta complex formation; note: nearly all actives have a fitted effect of over 15% in size
Conditions: Rango CFP/YFP FRET sensor + importin beta, 45 min; series mostly up to 92.2 µM
Excerpt: NIH Molecular Libraries Probe Production Centers Network [MLPCN] NIH Chemical Genomics Center [NCGC] MLPCN Grant: R03 MH090808-01A1 Assay Submitter (PI): Petr Kalab NCGC Assay Overview: The small GTPase Ran regulates transport of macromolecules between the nucleus and the cytoplasm (nuclear transport) and has important functions in mitotic spindle assembly, nuclear envelope (NE) formation and nuclear pore complex (NPC) assembly. RanGTP gradient is thought to promote spindle assembly by providing a spatial clue to microtubule nucleation and Aurora A activation. Because the localized release and binding of importin alpha cargo relays this spatial clue to SAFs, inhibitors of the Rango - importin beta complex can then be used in further understanding their role in cell cycle specifically in mitosis progression. […] Activation of Aurora A has been linked to different types of cancer and a number of Aurora kinase inhibitors are being developed as potential canter therapeutics therefore, identified inhibitors of this complex could be developed into potential anti-mitotic probes for cancer treatment. Purified recombinant proteins Rango and importin beta were provided by the assay submitter. The assay used a fluorescence resonance energy transfer (FRET) Rango biosensor that contains the IBB of human snurportin 1 flanked by yellow fluorescent protein (EYFP) at the amino terminus and cerulean CFP10 at the carboxy terminus. […] Inhibitors will therefore be identified based on the ability to interfere with the FRET signal decrease. DMSO treated and no importin beta (buffer only) wells were used as negative and positive controls respectively. FRET readings were obtained at two time points. FRET reading prior to importin beta addition (pre-read) were used flag potential compound interference; FRET reading after importin beta addition (post-read) were used to identify inhibitors using the FRET ratio parameter.
NCGC Assay Protocol Summary: Two and a half uL/well of Rango-buffer solution (50 nM Rango, 1x PBS, 1mM DTT, 0.02% Tween-20, 0.1% BSA final concentrations) was dispensed into 1536-well assay plates (Greiner, solid black medium-binding plates) with Aurora Discovery BioRAPTR Flying Reagent Dispenser (FRD; Beckton-Dickenson). Compound solution (23 nL) was transferred to the assay plate using Kalypsys pin tool equipped with a 1536-pin tool and incubated at room temperature for 5 min followed by a FRET pre-read using the PerkinElmer Envision plate reader. Two and a half uL/well of Importin beta - buffer solution (0.125 microM importin beta, 1x PBS, 1mM DTT, 0.02% Tween-20, 0.1% BSA final concentrations) were then added and incubated at room temperature giving a final reaction volume of 5uL. After 45min FRET post-read was obtained via the Envision plate reader using the same optics and settings as the pre-read (CFP/YFP optimized dual optical module D450/D505; excitation mirror CFP 430/24 nm; and emission filters CFP 486/10 nm and YFP 530/10 nm).
Potency is the fitted concentration of half-maximal effect; tags give direction and shape of the fitted curve.

| SMILES | Potency |
| --- | --- |
| CCN(CC)S(=O)(=O)c1cccc(NC(=O)c2ccc(S(=O)(=O)N3CCCC3)cc2)c1 | inactive |
| O=C(NNc1nc(N2CCCC2)nc(N2CCCC2)n1)c1ccccc1 | inactive |
| O=C(NCC1CCCCC1)NCC1CCCCC1 | inactive |
| Cc1cc(OCCCC(=O)Nc2cc(S(=O)(=O)N3CCOCC3)ccc2N2CCOCC2)ccc1Cl | inactive |
| C(#CCN1CCOCC1)CCCN1CCOCC1 | inactive |
| c1ccc(C(=NNc2nc3ccccc3s2)c2ccccn2)cc1 | inactive |
| O=C1C(Cl)=C(Oc2ccccc2)C(=O)c2ccccc21 | inactive |
| O=C(O)C1C2C=CC(O2)C1C(=O)Nc1ccccn1 (stereo not drawn) | inactive |
| O=C1CC[C@@H]2CC3(C[C@@H]4CCN1[C@H]24)Nc1cc([N+](=O)[O-])ccc1NC3=NC1CCCCC1 (stereo partly drawn) | inactive |
| COc1cccc2c1C(=O)c1c(O)c3c(c(O)c1C2=O)CC(O)(C(C)=NNC(=O)c1ccc(Cl)c(Cl)c1)CC3OC1CC(N)C(O)C(C)O1 (stereo not drawn) | 14.6 µM (active) |
| Cc1cccc(NC(=S)N2CCC(C(=O)c3ccc(F)cc3)CC2)c1 | inactive |
| CCC1([N+](=O)[O-])COC(c2ccc(C)cc2)OC1 (stereo not drawn) | inactive |
| COC(=O)c1ccc(NCc2cc(O)ccc2O)cc1 | inactive |
| CC(=O)c1ccc(NC(=O)C(C)OC(=O)c2ccc(NS(=O)(=O)c3ccc4[nH]c(=O)[nH]c4c3)cc2)cc1 (stereo not drawn) | inactive |
| CCOc1cc2ccccc2cc1C(=O)Nc1ccccn1 | inactive |
| CCN(CC)CCOc1ccc2c(c1)C(=NNC(=O)c1ccccn1)c1cc(OCCN(CC)CC)ccc1-2 | 46.1 µM (active) |
| Cc1cccc(OCC(=O)NCCCNC(=O)c2ccccn2)c1 | inactive |
| COC(=O)c1ccc(CNC(=O)Cn2cc(C)c(=O)[nH]c2=O)cc1 | inactive |
| CC(Nc1ccc([N+](=O)[O-])cc1[N+](=O)[O-])c1ccccc1 (stereo not drawn) | inactive |
| CCCN(C(=O)COC(=O)CNS(=O)(=O)c1ccc(NC(C)=O)cc1)C1CCS(=O)(=O)C1 (stereo not drawn) | inactive |
| CC(=NNC(=S)N1CCCCCC1)c1ccccn1 | inactive |
| CCOc1ccc(CCNC(=O)COC(=O)C2CCN(S(=O)(=O)c3ccccc3)CC2)cc1OCC | inactive |
| COc1ccc(/C(C)=N/NC(=O)c2ccc3nc[nH]c3c2)cc1 | inactive |
| O=C(N/N=C/c1ccc(Cl)c(Cl)c1)c1ccc2nc[nH]c2c1 | inactive |
| CC(=NNC(=O)c1ccc2nc[nH]c2c1)c1ccc(Br)cc1 | 51.7 µM (active) |

| SMILES | Potency |
| --- | --- |
| COc1ccc(CCN2CC(C(=O)OCC(=O)NCc3ccccc3Cl)CC2=O)cc1OC (stereo not drawn) | inactive |
| COc1cc2c(cc1OC)C1C(=O)c3cc(OS(C)(=O)=O)c(OC)cc3C1N(C)C2=O (stereo not drawn) | inactive |
| O=C(Cc1ccc(NC(=O)C2CCCN(C(=O)C3CCCCC3)C2)cc1)Nc1cccc(C(=O)N2CCCCC2)c1 (stereo not drawn) | inactive |
| CCOC(=O)[C@H]1[C@H]2COc3ccc(Br)cc3[C@@H]2N2C(=O)CN(C)C(=O)[C@@]12C | inactive |
| O=C(NCCc1ccccc1)c1cccc(NC(=O)c2ccccc2)c1 | inactive |
| CC(=O)CSc1nc(CCc2ccccc2)c(C#N)c(=O)[nH]1 | inactive |
| COC1C(CO)OC(n2cnc3c(=S)nc(N)[nH]c32)C1O (stereo not drawn) | inactive |
| COc1ccc(Cn2cc(CN3CCS(=O)(=O)N(Cc4ccc(-c5cccc(Cl)c5)cc4)C(C)C3=O)nn2)cc1 (stereo not drawn) | inactive |
| CCN1C[C@@H]2[C@@H]3C(=O)N(Cc4ccccc4)C(=O)[C@@H]3[C@](C)(C1=O)N2C(=O)c1ccc(C(C)(C)C)cc1 | inactive |
| Cc1cc2c(cc1C)NC1(C[C@H]3CCC(=O)N4CC[C@@H](C1)[C@@H]34)C(=NC(C)(C)CC(C)(C)C)N2 (stereo partly drawn) | inactive |
| O=C(OCCOc1ccccc1F)c1cc(S(=O)(=O)N2CCOCC2)ccc1F | inactive |
| O=C1/C(=C\c2ccc([N+](=O)[O-])cc2)CS(=O)(=O)C/C1=C/c1ccc([N+](=O)[O-])cc1 | inactive |
| FC(F)(F)c1ccc(-c2cccc3c2C2CC3CCN2Cc2ccccc2)cc1 (stereo not drawn) | inactive |
| CCOc1ccc(S(=O)(=O)N2CCN(C(=O)c3oc4ccccc4c3C)CC2)cc1 | inactive |
| Cc1nc(N)nc(Cl)c1CCC1OCCO1 | inactive |
| Cn1c(=O)[nH]c2c(c(C(=O)O)nn2C)c1=O | inactive |
| O=C(CC(=O)c1cccnc1)c1ccccc1 | inactive |
| O=C(O)C(c1cccs1)C1(O)CCCCC1 (stereo not drawn) | inactive |
| CC(=NNC(=O)c1ccncc1)c1ccc(Cl)c(Cl)c1 | inactive |
| Cc1ccc2c(O)c(Cc3ccccc3)c(=O)[nH]c2n1 | inactive |
| COc1ccc(OC)c(Cc2cnc3nc(N)nc(N)c3c2C)c1 | inactive |
| O=C1NC(=O)C(CCc2ccccc2)(c2ccccc2)N1 (stereo not drawn) | inactive |
| O=S(=O)(Nc1ccc2ccccc2c1)N1CCCCC1 | inactive |
| NC(=O)C1(Nc2ccc([N+](=O)[O-])cc2)CCCC1 | inactive |
| COc1cccc(-n2nc(C(=O)N3CCN(Cc4ccccc4)CC3)c3ccccc3c2=O)c1 | inactive |

| SMILES | Potency |
| --- | --- |
| CCOC(=O)N1CCN(Cc2nc3cc(NC(C)=O)ccc3n2C)CC1 | inactive |
| CCOC(=O)N1CCN(Cc2nc3ccc([N+](=O)[O-])cc3c(=O)n2-c2cccc(OC)c2)CC1 | 65.1 µM (active) |
| C=CCn1c(=O)n(C)c2c(=O)n(C)c(=O)n(C)c21 | inactive |
| CCc1nnc(NC(=O)c2cc(S(=O)(=O)N3CCN(CC)CC3)ccc2Cl)s1 | inactive |
| O=[N+]([O-])c1ccc(N2CCOCC2)cc1 | inactive |
| COC1=CC(=O)OC(c2ccc(OC)cc2)C1 (stereo not drawn) | inactive |
| C[C@@H]1NS(=O)(=O)c2cc(Cl)ccc2O[C@@H]1c1ccccc1 | inactive |
| Cc1onc(-c2c(F)cccc2Cl)c1C(=O)Nc1cccc(S(=O)(=O)N2CCCCC2)c1 | inactive |
| COc1cc(O)c2c(=O)c3c(O)c(O)ccc3oc2c1OC | inactive |
| COc1ccccc1C(=O)c1ccccc1C(=O)c1ccccc1 | inactive |
| CCc1c(Nc2ccccc2Cl)nc(N)[nH]c1=O | inactive |
| O=C1NCC(c2ccccc2)(c2ccccc2)C(=O)N1 | inactive |
| CC(=O)OC1CCC2(C)C(=CCC3C4CC(=O)N(O)C(=O)C4(C)CCC32)C1 (stereo not drawn) | inactive |
| O=c1[nH]c(=S)[nH]c(O)c1/C=C1\C=Nc2ccccc21 | inactive |
| CN1CCC(N(C)C(=O)c2ccc(Cl)c(S(=O)(=O)Nc3ccc(Cl)cc3)c2)CC1 | inactive |
| O=C1CC(C(=O)O)NC(=S)N1 (stereo not drawn) | inactive |
| Cc1ccc(C)c(S(=O)(=O)N(C)c2ccc(OC(=O)C3CCN(C(=O)c4ccc(F)cc4)CC3)cc2)c1 | inactive |
| COc1ccc(C(=O)Nc2cccc(/C=C(/CCC(=O)O)c3nc4ccccc4s3)c2)cc1 | inactive |
| O=C1COc2c1ccc(O)c2O | inactive |
| COc1ccc(-c2nnc(-c3ccc4ccccc4c3)o2)cc1 | inactive |
| CC(=O)c1cccc(-c2ccc(CN3C(CC(C)C)C(=O)N(Cc4cn(CC5CCCCC5)nn4)CCS3(=O)=O)cc2)c1 (stereo not drawn) | inactive |
| Cn1c(N)cc(=O)n(C)c1=S | inactive |
| Nc1ccc2[nH]c(=S)sc2c1 | inactive |
| Cc1nc(N)sc1-c1ccccc1 | inactive |
| COc1ccc(Nc2ccc3ccccc3c2)cc1 | inactive |

| SMILES | Potency |
| --- | --- |
| O=C(CCC(=O)N1CCN(S(=O)(=O)c2ccc(Cl)cc2)CC1)NCc1cccc(C(F)(F)F)c1 | inactive |
| CCOC(=O)C(CO)NC(=O)C1(NC(C)=O)CCCC1 (stereo not drawn) (Ac-[Ac5c]-[ξS]-OEt) | inactive |
| CCN1CCC(O)(/C=C/c2ccc(C)cc2)C(C(=O)/C=C/c2ccc(C)cc2)C1 (stereo not drawn) | inactive |
| COC(=O)Cc1c(-c2[nH]c3ccccc3c2CC(=O)OC)[nH]c2ccccc12 | inactive |
| CC1(C)C(=O)CCC2(C)C1=CCC1C2C(=O)CC2(C)C1CCC2(O)C(=O)CO (stereo not drawn) | inactive |
| C#CCOCCOCCOCCNc1nc(N2CCOCC2)nc(N2CCN(C(=O)[C@H](Cc3ccc(O)cc3)n3cc(CCO)nn3)CC2)n1 | inactive |
| CSc1ncnc2c1ncn2CC(=O)C1CCC2C3CCC4=CC(=O)CCC4(C)C3CCC12C (stereo not drawn) | inactive |
| COc1ccc(/C=C/C(=O)OCC(=O)N2CCN(S(=O)(=O)c3ccc(C)cc3C)CC2)cc1OC | inactive |
| CN(C)c1ccc(CSc2ccccc2)cc1 | inactive |
| Cc1cccc(CC2(O)C(=O)Nc3ccccc32)n1 (stereo not drawn) | inactive |
| O=C(Cc1ccc(NC(=O)C2CCCN(C(=O)CCc3ccccc3)C2)cc1)Nc1ccc(C(=O)N2CCOCC2)cc1 (stereo not drawn) | inactive |
| O=C(Cc1ccc(S(=O)(=O)N2CCOCC2)s1)Nc1ccc(Br)c(C(F)(F)F)c1 | inactive |
| CN(CCc1ccccc1)C(=O)c1cccc(NC(=O)Cc2cccc(NC(=O)C3CCCN(C(=O)CCc4ccccc4)C3)c2)c1 (stereo not drawn) | inactive |
| COc1ccc(CNCCCNCc2ccc(OC)c(OC)c2)cc1OC | inactive |
| CCOc1cc(C=NNC(=O)CCCC(=O)NN=Cc2ccc(O)c(OCC)c2)ccc1O | inactive |
| COc1ccc(Br)cc1/C=N/Nc1ccc(S(=O)(=O)Nc2ccccc2C(=O)O)cc1[N+](=O)[O-] | inactive |
| O=C(NN=Cc1ccccc1O)NN=Cc1ccccc1O | inactive |
| O=C(NNC(=O)c1ccccc1O)c1ccccc1O | inactive |
| CCCN(CCC)S(=O)(=O)c1cc2c(cc1Br)CCN2C(=O)CC | inactive |
| CCOc1ccccc1NC(=S)C(=C([O-])c1ccc2c(c1)OCCO2)[n+]1ccc(CC)cc1 | inactive |
| COc1ccc(N=C2C=CC(=O)O2)cc1 | inactive |
| Cc1cccc(C=CC(=O)c2ccc(Cl)cc2)c1 | inactive |
| COc1ccc(CCNC(=O)COc2cc(C)cc3oc(=O)c(C)c(C)c23)cc1OC | inactive |
